In experiment [1] the target is T1, D(2) dopamine receptor (Bos taurus, UniProt P20288). Description: Low binding affinity for dopamine D-2 receptor from bovine anterior pituitary membrane, using radioligand [3H]spiroperidol.
For experiment [2], the target named is T1, D(2) dopamine receptor. Description: High binding affinity for dopamine D-2 receptor from bovine anterior pituitary membrane, using radioligand [3H]spiroperidol.

Amino acid sequences for entries named in this document (tags omitted).
UniProt P20288, whole entry: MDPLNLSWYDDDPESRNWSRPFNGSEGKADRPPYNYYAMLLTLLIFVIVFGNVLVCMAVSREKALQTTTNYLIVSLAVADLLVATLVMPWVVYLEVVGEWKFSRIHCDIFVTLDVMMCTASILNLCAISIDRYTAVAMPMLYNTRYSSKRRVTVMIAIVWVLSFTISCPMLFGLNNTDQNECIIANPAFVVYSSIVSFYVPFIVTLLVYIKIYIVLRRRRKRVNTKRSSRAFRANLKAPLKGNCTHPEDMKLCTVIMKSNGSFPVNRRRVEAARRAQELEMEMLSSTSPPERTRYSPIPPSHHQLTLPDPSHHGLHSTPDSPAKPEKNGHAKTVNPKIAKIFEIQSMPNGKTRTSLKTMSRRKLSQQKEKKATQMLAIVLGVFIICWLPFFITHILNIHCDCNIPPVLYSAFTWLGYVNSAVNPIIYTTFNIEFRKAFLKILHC

The values that follow come from ChEMBL document CHEMBL1124469, “Synthesis and dopaminergic activity of 2-substituted octahydrobenzo[f]quinolines” (J Med Chem, 1989).

SMILES strings stand for the structures.

A word on the Ki: it is a measure of affinity in units of concentration, obtained from inhibition or displacement. Low values mean higher affinity, high ones lower affinity. Regarding `CCCN1C[C@H](CSC)C[C@@H]2c3cc(O)c(O)cc3CC[C@H]21`, the figures for the Ki on D(2) dopamine receptor [1] and at D(2) dopamine receptor [2] were 110 nM and 2 nM, respectively.
